# Measured affinities in a library of Ab-14 heavy chain variants

Reference: Li et al. 2023, doi:10.1038/s41467-023-39022-2. File: FLAb, binding data.

Target: peptide PDVDLGDISGINAS, taken from heptad repeat 2 (HR2) of SARS-CoV-2 spike.

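The parent was found by panning a naive human phage display library on the peptide. Designed CDR sequences, proposed from the first random library and measured here. Group labels follow the data file (Ctrl: baseline library sampled from a position-specific scoring matrix, with some repeated check sequences; Rand: our label for a block that the file lists under HC and that is probably the random mutants of the ten best first-round binders; GP: Gaussian process model; GPLM: also part of the Gaussian process libraries; HC: hill climbing; Gen: genetic algorithm; Gibbs: Gibbs sampling; a sequence that several methods proposed may carry one label only). AlphaSeq pools MATa yeast showing the antibodies with MATalpha yeast showing the peptide. Pairs that bind mate more often; barcode pairs of the diploids are counted by sequencing. Each replicate has its own calibration line, from reference interactions of the BCL2 family. Mating was done six times.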

Each scFv is VH, a (GGGGS)3 linker, VL, as in the parent Ab-14, and differs from it in the CDRs of the heavy chain only.
VH: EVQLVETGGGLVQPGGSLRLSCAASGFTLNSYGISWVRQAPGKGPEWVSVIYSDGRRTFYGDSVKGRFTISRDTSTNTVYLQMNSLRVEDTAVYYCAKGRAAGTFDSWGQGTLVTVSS
VL: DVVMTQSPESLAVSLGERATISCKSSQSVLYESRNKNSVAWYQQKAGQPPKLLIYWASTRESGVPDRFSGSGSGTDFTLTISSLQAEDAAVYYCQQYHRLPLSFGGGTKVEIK

Positions count from residue 1 of the parent VH; T28G puts G in place of T.
Variants here have at most six changes.
Kd is apparent (estimated from mating counts) and averaged on the log scale over replicates with a signal. Smaller is tighter.
An entry "nd" has no value in the source: the pair was not observed among the diploids in any replicate. This suggests poor binding but is not conclusive.
Entries are sorted by rising average, undetected variants last.
Background: pairings of all heavy chain designs with three empty control strains gave a value in 1% of cases (median 120 nM, 5th percentile 7.0 nM). Values in that range, when seen in few replicates, are hard to tell from nonspecific mating. The control count says in how many pairings with the empty strains this scFv gave a signal.
Values of this round are not directly comparable with the first-round values of the same sequences.
The authors' rule: three or more of the six replicates give a measured affinity, fewer mean a poor binder.
Some sequences occur more than once in the pool; their replicates are pooled.
The parent sequence was in this pool as ten entries: three were never detected, three once, and four in most replicates, with averages from 2.2 nM to 240 nM.

Variant T28G/G61I/A101Q [GP_Gen] gave 200 pM (6 of 6 replicates; controls 0 of 18). With T28H/S31Q/R100K/A101L [Ctrl] the result was 300 pM (6 of 6 replicates; controls 0 of 18). Variant S31E/F59A [Ctrl+GPLM_Gen] gave 740 pM (12 of 12 replicates; controls 1 of 36). Variant S31N/S53A [Ctrl+GPLM_Gen] gave 810 pM (12 of 12 replicates; controls 0 of 36). Variant T28W/S31D/S53A/R100T [GP_HC] gave 920 pM (6 of 6 replicates; controls 0 of 18).

With T28S/S31E/A101V/S107T [GPLM_Gibbs] the result was 1.1 nM (6 of 6 replicates; controls 0 of 18). With T28S/G61A/S107K [GPLM_Gen] the result was 1.2 nM (6 of 6 replicates; controls 0 of 18). For T28S/S31Q/R100Q [GPLM_Gen], the assay gave 1.2 nM (6 of 6 replicates; controls 0 of 18). With T28D/A101E/S107F [GPLM_Gibbs] the result was 1.7 nM (6 of 6 replicates; controls 0 of 18). With T28E/G61T/R100Q [GPLM_Gen] the result was 2.0 nM (6 of 6 replicates; controls 0 of 18).

With T28D/A101Y/D106E [GP_HC] the result was 2.0 nM (6 of 6 replicates; controls 0 of 18). With T28E/S31M/G61H/A101E [GPLM_Gibbs] the result was 2.1 nM (6 of 6 replicates; controls 0 of 18). For T28S/G61A/A101Q/S107A [GPLM_Gen], the assay gave 2.4 nM (6 of 6 replicates; controls 1 of 18). Variant T28S/S31M/A101Q [GPLM_Gibbs] gave 2.6 nM (6 of 6 replicates; controls 0 of 18). With S31N/K65R/G99L/A101G/A102I [Ctrl] the result was 4.3 nM (3 of 6 replicates; controls 0 of 18).

Variant G61S/R100Q/A102G/S107V [GP_HC] showed 8.8 nM (6 of 6 replicates; controls 0 of 18). For T28D/S63D/A101Q [GP_Gen], the assay gave 12 nM (6 of 6 replicates; controls 0 of 18). For T28D/G61H/D106N [GP_HC], the assay gave 12 nM (1 of 6 replicates; controls 0 of 18). Variant T28S/G61V/S63D/A101N [GP_Gibbs] gave 14 nM (4 of 6 replicates; controls 0 of 18). For T28S/A101S [GPLM_Gen], the assay gave 16 nM (6 of 6 replicates; controls 1 of 18).

Variant T28S/G61T/R100E [GPLM_Gen] showed 20 nM (6 of 6 replicates; controls 0 of 18). For T28E/G61I/A101I [GP_Gen], the assay gave 20 nM (6 of 6 replicates; controls 1 of 18). With T28S/S31W/F59S/G61I [GP_HC] the result was 20 nM (6 of 6 replicates; controls 1 of 18). Variant T28H/S31E/G61I/A101L [GP_HC] showed 31 nM (6 of 6 replicates; controls 0 of 18). Variant R57K/G61D/R100Q/A101T [GPLM_HC] gave 60 nM (6 of 6 replicates; controls 0 of 18).

For G61S/A101Q/S107M [Ctrl], the assay gave 63 nM (6 of 6 replicates; controls 1 of 18). Variant T28L/A102E/T104R [Ctrl] gave 80 nM (1 of 6 replicates; controls 0 of 18). With T28V/G61K/R100Q/A101T/S107T [GP_Gibbs] the result was 100 nM (6 of 6 replicates; controls 2 of 18). With T28E/S31D/F59E/G61S [GP_HC] the result was 220 nM (4 of 6 replicates; controls 0 of 18). With K65R/T104Q [Ctrl] the result was nd (0 of 6 replicates; controls 0 of 18).

With G33S/S53A/S63D/D106L [Ctrl] the result was nd (0 of 6 replicates; controls 0 of 18). Variant F27T/T28A/S63A/A101W [Ctrl] gave nd (0 of 6 replicates; controls 1 of 18). With T28D/A102K/D106N [Ctrl] the result was nd (0 of 6 replicates; controls 0 of 18). For S63A/G99H/A101E/A102Q/G103A [Ctrl], the assay gave nd (0 of 6 replicates; controls 0 of 18). With S53A/F59Y/F105N/D106K [Rand] the result was nd (0 of 6 replicates; controls 0 of 18).

Variant S31E/R56L/F59M/A101K/G103V/S107Q [Rand] showed nd (0 of 6 replicates; controls 1 of 18). Variant S31D/G61S/T104F/D106M [GPLM_HC] gave nd (0 of 6 replicates; controls 0 of 18). With L29A/S31E/G61T/A101F/D106N [Rand] the result was nd (0 of 6 replicates; controls 0 of 18). With T28E/S31D/A101Q/S107T [GP_Gen] the result was nd (0 of 6 replicates; controls 0 of 18). Variant G26K/N30K/F59A/A102S/S107K [Ctrl] showed nd (0 of 6 replicates; controls 0 of 18).

With T28M/R100Y/A101C/A102Q [Ctrl] the result was nd (0 of 6 replicates; controls 0 of 18). Variant F27E/N30R/G99I/G103D [Ctrl] showed nd (0 of 6 replicates; controls 0 of 18). Variant G61D/D62W/R100Q/A101E [GP_HC] gave nd (0 of 6 replicates; controls 0 of 18). With F27E/R100D/T104D/F105S [Ctrl] the result was nd (0 of 6 replicates; controls 0 of 18). Variant S53A/D54A/F105N/D106K [Rand] gave nd (0 of 6 replicates; controls 0 of 18).

Variant T28E/G61V/S63M/R100Q/A101T [GP_Gibbs] showed nd (0 of 6 replicates; controls 0 of 18). For S31E/R56I/G103V/S107Q [GPLM_HC], the assay gave nd (0 of 6 replicates; controls 1 of 18). For S31E/I34D/Y60P/G103V/S107Q [Rand], the assay gave nd (0 of 6 replicates; controls 0 of 18). With R56S/K65R/G103Q [Ctrl] the result was nd (0 of 6 replicates; controls 0 of 18).

The 3 strongest on average among those seen in every replicate, once more:

{"changes": "T28G/G61I/A101Q", "group": "GP_Gen", "Kd": "200 pM", "replicates with signal": "6/6", "signal with controls": "0/18"}
{"changes": "T28H/S31Q/R100K/A101L", "group": "Ctrl", "Kd": "300 pM", "replicates with signal": "6/6", "signal with controls": "0/18"}
{"changes": "S31E/F59A", "group": "Ctrl+GPLM_Gen", "Kd": "740 pM", "replicates with signal": "12/12", "signal with controls": "1/36"}